## Ab-14 heavy chain CDR variants: yeast mating affinities

Target: peptide PDVDLGDISGINAS, taken from heptad repeat 2 (HR2) of SARS-CoV-2 spike.

Parent scFv Ab-14: VH joined to VL by the linker GGGGSGGGGSGGGGS. Changes lie in the heavy chain CDRs alone.
VH: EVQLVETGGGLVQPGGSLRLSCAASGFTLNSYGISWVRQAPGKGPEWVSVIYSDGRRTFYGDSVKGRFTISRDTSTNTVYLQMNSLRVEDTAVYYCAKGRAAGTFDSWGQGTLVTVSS
VL: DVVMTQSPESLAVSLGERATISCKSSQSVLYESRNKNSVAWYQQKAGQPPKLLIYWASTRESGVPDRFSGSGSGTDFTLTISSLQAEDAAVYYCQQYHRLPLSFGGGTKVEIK

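The parent was found by panning a naive human phage display library on the peptide. These sequences belong to a second round, designed from the earlier measurements on random variants of the parent. Several design methods are mixed in this list. AlphaSeq pools MATa yeast showing the antibodies with MATalpha yeast showing the peptide. Pairs that bind mate more often; barcode pairs of the diploids are counted by sequencing. The ratio of observed to expected reads was calibrated, replicate by replicate, on BCL2-family standards whose Kd was known from biolayer interferometry. The assay was run in six technical replicates.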

Each variant is given by its three heavy chain CDRs, as the data file delimits them; those of the parent are GFTLNSYGIS, VIYSDGRRTFYGDSVK, GRAAGTFDS. Variants here have at most six changes. The Kd shown is the geometric mean over detected replicates; a lower Kd is a better binder. "no signal" means that the variant was in the library but no mating with the target was seen in any replicate; the authors take this as a sign of poor binding, and no number exists.

Variant GFELNSYGIS, VIYSDGRRTFYGDSVK, GVTAGTFDS gave 3.6 nM (6 of 6 replicates).
Variant GFSLNSYGIS, VIYSDGRRTFYSDRVK, GRTAGTFDS gave 12 nM (6 of 6 replicates).
Variant GFTLNSYGIS, VIYSDGMRTFYGDSVK, GRQAGTFDV gave no signal (0 of 6 replicates).
Variant GFTLNSYPIS, VIYSDGRRTFYGDSVK, GRAAGLFDS gave no signal (0 of 6 replicates).
Variant GFDLNEYGIS, VIYSDGRRTFYGDAVK, GRTAGTFDS gave 340 pM (6 of 6 replicates).
Variant GFDINSYGIS, VIYSDGRRQFYIDSVK, GRAAGTFDS gave 3.0 nM (6 of 6 replicates).
Variant GFTLNSYGIS, VIYSDGRRTFYADSVK, GWVAGTFDT gave 3.4 nM (6 of 6 replicates).
Variant HFTLNSYGIS, VIYSDGERQFYGGSVK, GRAAGTFDS gave no signal (0 of 6 replicates).
Variant GFTLNEYGIS, VIYSDGRRTFYTDSVK, GRAAGTFTS gave no signal (0 of 6 replicates).
Variant GFTLNSYGIS, VIYSDGRRTFYSDSVK, GRAGWTFDS gave 170 nM (1 of 6 replicates).
Variant GFDLNSYGIS, VIYSDGRRTFQHDSVK, YRAAGWFNS gave no signal (0 of 6 replicates).
Variant GFDLNSYGIS, VIYSDGRRTFYGDSVK, GEAAGTFDL gave 16 nM (6 of 6 replicates).
Variant GFRLNSYGIS, VIYSDGRRTFYGDSVK, GQAAGTFES gave 44 nM (2 of 6 replicates).
Variant GFDLNQYGIS, VIYSDGRRTFYSDSVK, GRAAGKFDS gave no signal (0 of 6 replicates).
Variant GFTLNDYGIS, VIYSDGRRTVYGDSVK, GRAALTFIS gave no signal (0 of 6 replicates).
Variant HFSLNSYGIS, VIYSDGRRTFYADSVK, GREAGTFDS gave 1.9 nM (6 of 6 replicates).
Variant GFTLNSYGIS, VIYSDGRRTFYGDSVK, GTAAGTFDQ gave no signal (0 of 6 replicates).
Variant GFELNSYGIS, VIYSDGRRTFYSDSVK, GKAGGTFDS gave 17 nM (6 of 6 replicates).
Variant GFALNSYGIS, VIYSDGRRTFYGDSVK, GQAAGTFDL gave 8.5 nM (6 of 6 replicates).
Variant GFQLNSYGIS, VIYSDGQRTFYGDSVK, GRTAGTFDS gave 8.3 nM (4 of 6 replicates).
Variant GFGLNEYGIS, VIYSDGRRTFYGDSVK, GRNAGTFDT gave 11 nM (6 of 6 replicates).
Variant GFSLNEYGIS, VIYSDGRRTFYGDSVK, GTAAGTFDR gave 3.3 nM (6 of 6 replicates).
Variant GFDLNSYGIS, VIYSDGRRTFYGDSVK, GRTAGRFTS gave no signal (0 of 6 replicates).
Variant GFTLNSGGIS, VIYSDGRRTFYIDSVK, GQLADTFDS gave no signal (0 of 6 replicates).
Variant GFQLNEYGIS, VIYSDGRRTFYGDSVK, GRAALTFNS gave no signal (0 of 6 replicates).
Variant GFNLNSYGIS, VIYSDGRRTFYADRVK, GQAAGTFDS gave 12 nM (6 of 6 replicates).
Variant GNTLNSYGIS, VIYSDGRRTFYGDSVK, GRAAGTFDS gave 490 nM (3 of 6 replicates).
Variant GFTLNSYGIS, VIYSDGRRTFYGDSVK, ARAATWFDS gave no signal (0 of 6 replicates).
Variant GFTLNSYGIS, SIYSDGRRTFYGDSVK, NRAKGTFDW gave no signal (0 of 6 replicates).
Variant GFTLNSYGIS, VIYADGRRTFYGDRVK, GRAAGTFDV gave 6.5 nM (6 of 6 replicates).
Variant GFNLNEYGIS, VIYADGRRTFYADSVK, GEAAGTFDM gave no signal (0 of 6 replicates).
Variant HFSLNEYGIS, VIYSDGRRTFYGDSVK, GRTAGTFDS gave 3.1 nM (6 of 6 replicates).
Variant GFTLNEYGIS, VIYSDGRRTFYGDSVK, GRAAGTFIM gave no signal (0 of 6 replicates).
Variant GFTLNSYGIS, VIYSDGRRTFYTDSVK, GQEAGTFDS gave 1.4 nM (6 of 6 replicates).
Variant GFELNSYGIS, VIYSDGRRTFYIDEVK, GRTAGTFDS gave 3.2 nM (3 of 6 replicates).
Variant GFTLNEYGIS, VIYSDGQRTFYGDSVK, GRTAGTFDK gave 1.6 nM (6 of 6 replicates).
Variant GFQLNEYGIS, VIYSDGRRTFYQDSVK, GKAAGTFDS gave 4.6 nM (6 of 6 replicates).
Variant HFTLNSYGIS, VIYSDGRRTFYGDSVK, GYAAGTFES gave no signal (0 of 6 replicates).
Variant GFSLNSYGIS, VIYSDGRRTFYIDSVK, GWAAGTFDL gave 29 nM (6 of 6 replicates).
Variant GFTLNSYGIS, VIYSDGKRTFYADSVK, GHAAGTFDL gave 8.7 nM (6 of 6 replicates).
Variant GFTLNEYGIS, VIYSDGRRTFYGDSVK, GRAAGTFGK gave no signal (0 of 6 replicates).
Variant GFTLDSYMIS, VIYSDGRRTFYGDSVK, GRAAGTALS gave no signal (0 of 6 replicates).
Variant LHTLNSYGIS, VWYSDGRRTFYSDSVK, GRAGGTFDS gave no signal (0 of 6 replicates).
Variant GFDLNSYGIS, VIYSDGRRTFYGDSVK, GHTAGTFDS gave 8.8 nM (6 of 6 replicates).
Variant GFDLNSYGIS, VIYSDGRRTFYGDSVK, GWQAGTFDS gave 2.9 nM (6 of 6 replicates).

Excerpt, the final 5 entries:

{"CDR-H1": "GFTLNEYGIS", "CDR-H2": "VIYSDGRRTFYGDSVK", "CDR-H3": "GRAAGTFGK", "Kd": "no signal", "seen in": "0 of 6"}
{"CDR-H1": "GFTLDSYMIS", "CDR-H2": "VIYSDGRRTFYGDSVK", "CDR-H3": "GRAAGTALS", "Kd": "no signal", "seen in": "0 of 6"}
{"CDR-H1": "LHTLNSYGIS", "CDR-H2": "VWYSDGRRTFYSDSVK", "CDR-H3": "GRAGGTFDS", "Kd": "no signal", "seen in": "0 of 6"}
{"CDR-H1": "GFDLNSYGIS", "CDR-H2": "VIYSDGRRTFYGDSVK", "CDR-H3": "GHTAGTFDS", "Kd": "8.8 nM", "seen in": "6 of 6"}
{"CDR-H1": "GFDLNSYGIS", "CDR-H2": "VIYSDGRRTFYGDSVK", "CDR-H3": "GWQAGTFDS", "Kd": "2.9 nM", "seen in": "6 of 6"}

As a blank, each scFv also met three strains without target: over all heavy chain designs, 1% of these pairings were detected, typically at 120 nM and seldom below 7.0 nM. A sequence measured in both rounds can read differently, since the two assays cover different ranges. The authors' rule: three or more of the six replicates give a measured affinity, fewer mean a poor binder.

Source: Li et al. 2023 (doi:10.1038/s41467-023-39022-2), MIT Lincoln Laboratory and A-Alpha Bio; data file from the FLAb repository.